The target of one experiment is his6-TDP[…]R (human, H493R). The experiment can be described thus: pull-down.
The next experiment addresses his6-TDP[…]A (human, H263A). The experiment can be described thus: pull-down.
Experiment [1] addresses his6-TDP1 (human tyrosyl-DNA phosphodiesterase, wild type) (human). The experiment can be described thus: native gel or EMSA. A general note: In EMSA bound probe runs differently from free probe, usually more slowly.
Experiment [2] concerns the target N-terminally FLAG-tagged TDP1 (FLAG-TDP1) (human). Put plainly: native gel or EMSA.

B1: MBP-XLF (maltose-binding protein-tagged XLF, wild type) (natural protein, human, UniProt Q9H9Q4 1-299, looked up)
chain: MEELEQGLLMQPWAWLQLAENSLLAKVFITKQGYALLVSDLQQVWHEQVDTSVVSQRAKELNKRLTAPPAAFLCHLDNLLRPLLKDAAHPSEATFSCDCVADALILRVRSELSGLPFYWNFHCMLASPSLVSQHLIRPLMGMSLALQCQVRELATLLHMKDLEIQDYQESGATLIRDRLKTEPFEENSFLEQFMIEKLPEACSIGDGKPFVMNLQDLYMAVTTQEVQVGQKHQGAGDPHTSNSASLQGIDSQCVNQPEQLVSSAPTLSAPEKESTGTSGPLQRPQLSKVKRKKPRGLFS
B1: the binding result in the experiment with his6-TDP[…]R and with his6-TDP[…]A was “binds” each time.

B2: his6-XLF (wild type) (natural protein, human, UniProt Q9H9Q4 1-299, looked up)
chain: MEELEQGLLMQPWAWLQLAENSLLAKVFITKQGYALLVSDLQQVWHEQVDTSVVSQRAKELNKRLTAPPAAFLCHLDNLLRPLLKDAAHPSEATFSCDCVADALILRVRSELSGLPFYWNFHCMLASPSLVSQHLIRPLMGMSLALQCQVRELATLLHMKDLEIQDYQESGATLIRDRLKTEPFEENSFLEQFMIEKLPEACSIGDGKPFVMNLQDLYMAVTTQEVQVGQKHQGAGDPHTSNSASLQGIDSQCVNQPEQLVSSAPTLSAPEKESTGTSGPLQRPQLSKVKRKKPRGLFS
Regarding B2, the binding result in experiment [1] and in experiment [2] was “binds” each time.

B3: N-terminally FLAG-tagged XLF (FLAG-XLF) (natural protein, human, UniProt Q9H9Q4 1-299, looked up)
chain: MEELEQGLLMQPWAWLQLAENSLLAKVFITKQGYALLVSDLQQVWHEQVDTSVVSQRAKELNKRLTAPPAAFLCHLDNLLRPLLKDAAHPSEATFSCDCVADALILRVRSELSGLPFYWNFHCMLASPSLVSQHLIRPLMGMSLALQCQVRELATLLHMKDLEIQDYQESGATLIRDRLKTEPFEENSFLEQFMIEKLPEACSIGDGKPFVMNLQDLYMAVTTQEVQVGQKHQGAGDPHTSNSASLQGIDSQCVNQPEQLVSSAPTLSAPEKESTGTSGPLQRPQLSKVKRKKPRGLFS
Regarding B3, the binding result in experiment [1] is recorded as “binds”.

(Values after paper PMC4673895 (DNA repair, 2015).)
